## scFv variants of Ab-14 (light chain) against a SARS-CoV-2 spike peptide

Target peptide (SARS-CoV-2 spike, HR2 region): PDVDLGDISGINAS

Parent scFv Ab-14: VH joined to VL by a (GGGGS)3 linker. Changes lie in the light chain CDRs alone.
VH: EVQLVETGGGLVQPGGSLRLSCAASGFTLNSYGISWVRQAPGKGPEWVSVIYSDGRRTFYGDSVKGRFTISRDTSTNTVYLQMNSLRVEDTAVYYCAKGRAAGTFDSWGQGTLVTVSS
VL: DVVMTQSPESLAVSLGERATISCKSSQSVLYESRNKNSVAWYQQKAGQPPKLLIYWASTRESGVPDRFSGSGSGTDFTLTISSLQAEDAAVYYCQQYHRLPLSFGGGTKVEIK

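The parent was found by panning a naive human phage display library on the peptide. Designed CDR sequences, proposed from the first random library and measured here. Their group label is 14L_GP_HC (GP: Gaussian process model; HC: hill climbing; a sequence that several methods proposed may carry one label only). The assay is AlphaSeq: two haploid yeast populations carry antibody and antigen on their surface. Binding brings cells together so that they mate, and sequencing counts the barcode pairs among the diploids. Read counts were normalised to the haploid input and turned into Kd by a linear fit to BCL2-family pairs of known affinity, for each replicate. There are six technical replicates.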

Variants are written as CDR1, CDR2 and CDR3 of the light chain (limits as in the source). Parent: KSSQSVLYESRNKNSVA, WASTRES, QQYHRLPLS.
Numbers give log10(Kd / nM), so 0 is 1 nM and 3 is 1 µM. Smaller is tighter.
An entry "n.d." has no value in the source: the pair was not observed among the diploids in that replicate. This suggests poor binding but is not conclusive.
The authors averaged sequences with at least three values out of six and counted those with two or fewer as poor binders.

CDR-L1,CDR-L2,CDR-L3,log10 Kd (nM) by replicate,empty controls
HSSPSVLYESRNKNSVA,SASTRES,QQYHRLPLS,0.45 0.48 0.18 0.91 0.52 0.47,0 of 18
KSSISYEYESRNKNSVA,EASTRES,QQYHRLPLM,0.08 -0.03 -0.21 -0.17 0.08 -0.02,2 of 18 (2.78)
KQSDSVKQESRNKNSVA,DASTRES,QQYHRLPLS,0.31 0.26 0.00 0.04 0.07 0.25,1 of 18 (2.92)
ILMQSVLYESRNKNSVA,HASLRED,QQYHRLPLS,1.41 1.52 1.29 1.00 1.88 1.53,1 of 18 (4.00)
KFSQSVLYEDRTYNSVA,NASTRES,QQYHRLPLS,0.86 0.59 0.53 0.72 0.53 0.86,1 of 18 (3.42)
KVSQSVLYESRMKNSVA,DASTRCS,QQYHRLPLQ,0.20 0.12 -0.15 -0.06 0.02 0.37,2 of 18 (1.65)
KSDQSALYESRNKNSVA,GASTRES,QQYHRLPLS,0.05 -0.11 -0.27 -0.41 0.22 0.00,1 of 18 (2.43)
SLMQSVLYESRNKNSVA,HASCRED,QQYHRLPLS,0.79 0.20 0.10 0.12 0.46 0.56,0 of 18
KGSISYLEESRNKNSVA,EASTRES,QQYHRLPLS,-0.32 -0.31 -0.36 -0.42 -0.35 -0.04,0 of 18
KSSISVLYESRNENSVA,EASTREQ,QQYHRLPLS,0.30 0.20 0.00 0.17 0.38 0.05,3 of 18 (2.06)
HLSAVVLYESRNKNSVA,NASTRES,QQYHRLPLS,0.27 0.13 -0.05 0.33 0.22 0.37,4 of 18 (3.16)
KLSQSTLYDSPNKNSVA,WASTRES,QQYKRLPLS,n.d. n.d. n.d. 1.51 1.59 n.d.,0 of 18
KFRQSTLYESRNKNSVA,NASTRES,QQYHRLPLS,0.20 0.46 0.45 0.22 0.28 0.68,1 of 18 (1.56)
HSSQSVLYESRNKNSVA,NASTRMS,QQYHRLPLS,1.82 1.53 2.00 1.54 1.95 1.98,3 of 18 (3.09)
KVSQSWLYEDRVKNSVA,GAQTRES,QQYHRLPLS,0.78 0.89 0.39 0.28 0.42 0.95,0 of 18
KVSFSYLYESRNKNSVA,EASTRES,QQYHRLPLS,0.17 -0.37 -0.50 -0.39 -0.31 -0.21,1 of 18 (3.44)
KSSTSILYESVNKNSVA,HASTRES,QQYHRLPLS,0.48 0.67 0.59 0.04 0.22 0.99,1 of 18 (2.33)
HLSDSQLYESRNKNSVA,NASTRES,QQYHRLPLN,0.66 0.42 0.04 0.29 0.44 0.29,1 of 18 (2.40)
NSSQSVLYESRNKNSVA,GGNTRES,QQYHRLPLS,1.69 1.26 1.15 1.77 1.50 1.00,0 of 18
KLRQSTGYESRNPNSVA,KASTRES,QQYHRLPLS,0.03 0.01 -0.07 -0.22 -0.04 0.02,1 of 18 (2.83)
KMLQSVLYESRNKNSVA,HASTRED,QQYHRLPLS,0.17 0.01 -0.10 0.04 0.04 0.16,1 of 18 (2.97)
KSSQSVLNESRNKNSVA,DASTRLS,QQYHRMPLS,0.59 0.45 0.30 0.64 0.53 0.62,2 of 18 (3.21)
KSLQSELYESRNKNSVA,HASTRED,QQYHRLPLS,0.06 -0.05 -0.22 -0.20 0.12 0.07,0 of 18
KQSQSVLYESRNKNNVA,DASTRES,QQYHRLPLD,0.42 0.66 0.56 0.23 0.48 0.53,1 of 18 (2.53)
HLSDSVLYESRNKNSVA,NASTRCS,QQYHRLPLN,0.64 0.66 0.51 0.67 0.69 0.81,2 of 18 (3.36)
KFSQSVLMESRTSNRVA,NASTRES,QQYHRLPLS,0.45 0.20 0.19 -0.14 0.15 0.37,1 of 18 (2.92)
KVSQSVLYESRNKNSVA,NASTRES,QQMHRLPLS,0.33 0.43 0.27 0.24 0.72 0.76,1 of 18 (2.32)
KSSMEFLYESRNKNSVA,GASTRES,QQYHRLTLS,n.d. n.d. n.d. n.d. n.d. n.d.,0 of 18
KSSISPLYESRNTNSVA,EASTRES,QQYHRLPLS,0.70 1.18 0.95 1.14 1.27 1.13,1 of 18 (2.52)
KSSWSELYESGNKNSVA,HASTRED,QQYHRLPLS,0.29 0.10 0.12 -0.08 0.11 0.18,1 of 18 (2.81)
KSEKSVLFESRNKNSVA,NASTRES,QQYHRLPLS,1.00 0.87 1.32 0.68 1.05 1.00,0 of 18
KLRMSLLYESRNKNSVA,WASTRES,QQYHRLPLS,1.25 0.85 0.74 0.94 1.26 0.98,0 of 18
KSSQSELYESRNVNSVA,GASTRDS,QQYHRLPLS,0.36 0.22 0.07 0.00 0.11 0.35,2 of 18 (2.40)
KSSISYLEESRNKNSVA,EASARES,QQYHRLPLS,0.04 0.19 -0.04 -0.33 -0.10 0.11,1 of 18 (2.84)
KHSQSVLGEQRNKNSVA,DASTRES,QQYHRLPLS,-0.10 -0.15 -0.20 -0.46 -0.21 -0.25,0 of 18
KSYQGVLYESRNKNSVA,GASLRES,QQYHRLPLS,0.54 0.50 0.91 0.73 0.23 1.03,2 of 18 (1.42)
KFSQSVLYESRNKNSVA,DASTRSS,QQYHRLPLS,-0.15 -0.42 -0.16 -0.29 -0.23 -0.32,3 of 18 (2.15)
HSSQSVLYESRNKNNVA,NASTRES,QQYHRLPLS,0.58 0.41 0.36 0.75 0.60 0.63,3 of 18 (1.89)
KQSQSDLSESRNKNSVA,DASTRES,QQYHRLPLS,0.18 0.00 -0.33 -0.11 -0.10 0.18,0 of 18
ALMQSVLYESRNKNSVA,HASLRED,QQYHRLPLS,0.91 0.25 0.16 0.16 -0.21 0.16,1 of 18 (3.93)
KLRQSTLYESRNPNSVA,WASTRES,QQYHRLPLS,2.06 1.65 0.98 1.22 1.34 1.70,0 of 18
KLQQQTEYETRNKNSVA,WASTREE,QQYHRLPLS,0.20 0.32 0.16 -0.02 0.32 0.29,2 of 18 (2.66)

A sequence measured in both rounds can read differently, since the two assays cover different ranges.
The parent sequence was in this pool as ten entries: three were never detected, three once, and four in most replicates, with averages from 0.34 to 2.37.
Three control strains display no target. For all light chain designs, 4% of the pairings with them gave a signal, with a median of 2.64 and one signal in twenty below 1.59, so weak values seen in few replicates may be background. Also given: how often the same scFv was detected with the empty control strains, with their mean in brackets.

Data: MIT Lincoln Laboratory AlphaSeq set, Li et al. 2023, doi:10.1038/s41467-023-39022-2, as distributed in FLAb.